Biological target: HAUSP TRAF domain (HAUSP^62-205) (human)
Experiment: ITC, titration against HAUSP TRAF domain, 20 °C

B1: vIRF4^209-216 peptide (peptide)
peptide: EGASTSGM
modifications: not checked
  Kd: 9.57 µM

— patent US20130330358A1, “CRYSTAL STRUCTURE AND PEPTIDE INHIBITORS OF HAUSP DEUBIQUITINASE” (priority 2011, published 2013)
